ChEMBL document CHEMBL1129756, “Conformationally restricted TRH analogs: a probe for the pyroglutamate region” (J Med Chem, 1996)

Assays:
[1] = target: T1, Thyrotropin-releasing hormone receptor (Mus musculus, UniProt P21761); assay: Effective concentration required to activate TRH-R receptor in AtT-20 mouse pituitary tumor cells
T1 sequence (P21761 whole entry): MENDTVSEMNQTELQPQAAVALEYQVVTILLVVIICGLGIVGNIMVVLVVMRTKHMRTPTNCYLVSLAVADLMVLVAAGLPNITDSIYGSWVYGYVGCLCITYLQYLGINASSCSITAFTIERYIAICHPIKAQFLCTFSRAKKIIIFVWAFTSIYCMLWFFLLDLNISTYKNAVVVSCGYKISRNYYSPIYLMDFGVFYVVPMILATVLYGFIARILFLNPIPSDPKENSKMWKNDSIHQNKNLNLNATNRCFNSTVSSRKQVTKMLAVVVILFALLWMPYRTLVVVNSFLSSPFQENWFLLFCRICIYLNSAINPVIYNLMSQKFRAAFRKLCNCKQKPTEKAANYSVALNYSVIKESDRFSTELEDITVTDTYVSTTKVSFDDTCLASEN

[2] = target: T1, Thyrotropin-releasing hormone receptor; assay: Binding affinity against TRH-R receptor in AtT-20 mouse pituitary tumor cells

EC50 [1]: 110 nM
Ki [2]: 1500 nM
Compound: NC(=O)[C@@H]1CCCN1C(=O)[C@H](Cc1ccccc1)NC(=O)[C@@H]1CCC(=O)N1
